Data as given in patent publication US20250215014A1, “KINASE INHIBITORS, PREPARATION METHODS AND USES THEREOF” (InventisBio Co., Ltd., priority 2022, published 2025).

Chains of the proteins cited; added tags and fusions are not shown.
UniProt P23743, whole entry: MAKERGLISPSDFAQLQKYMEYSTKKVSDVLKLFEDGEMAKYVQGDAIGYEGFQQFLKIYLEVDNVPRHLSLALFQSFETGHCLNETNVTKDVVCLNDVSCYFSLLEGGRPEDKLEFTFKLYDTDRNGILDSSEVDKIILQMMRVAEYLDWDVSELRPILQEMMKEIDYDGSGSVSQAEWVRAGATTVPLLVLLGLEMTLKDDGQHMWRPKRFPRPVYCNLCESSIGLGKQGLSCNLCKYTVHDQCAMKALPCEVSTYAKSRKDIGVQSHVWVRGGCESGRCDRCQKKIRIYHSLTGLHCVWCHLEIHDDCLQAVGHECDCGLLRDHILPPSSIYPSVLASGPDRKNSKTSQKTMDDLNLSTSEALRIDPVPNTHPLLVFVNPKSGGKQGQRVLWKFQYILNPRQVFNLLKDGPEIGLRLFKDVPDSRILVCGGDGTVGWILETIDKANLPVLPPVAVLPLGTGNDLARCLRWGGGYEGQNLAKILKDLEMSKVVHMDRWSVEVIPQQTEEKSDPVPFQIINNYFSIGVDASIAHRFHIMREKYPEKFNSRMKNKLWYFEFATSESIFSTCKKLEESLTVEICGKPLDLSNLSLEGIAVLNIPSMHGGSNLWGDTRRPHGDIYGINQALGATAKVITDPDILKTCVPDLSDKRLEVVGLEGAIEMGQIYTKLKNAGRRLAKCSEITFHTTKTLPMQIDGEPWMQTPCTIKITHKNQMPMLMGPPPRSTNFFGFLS
UniProt Q13574, whole entry: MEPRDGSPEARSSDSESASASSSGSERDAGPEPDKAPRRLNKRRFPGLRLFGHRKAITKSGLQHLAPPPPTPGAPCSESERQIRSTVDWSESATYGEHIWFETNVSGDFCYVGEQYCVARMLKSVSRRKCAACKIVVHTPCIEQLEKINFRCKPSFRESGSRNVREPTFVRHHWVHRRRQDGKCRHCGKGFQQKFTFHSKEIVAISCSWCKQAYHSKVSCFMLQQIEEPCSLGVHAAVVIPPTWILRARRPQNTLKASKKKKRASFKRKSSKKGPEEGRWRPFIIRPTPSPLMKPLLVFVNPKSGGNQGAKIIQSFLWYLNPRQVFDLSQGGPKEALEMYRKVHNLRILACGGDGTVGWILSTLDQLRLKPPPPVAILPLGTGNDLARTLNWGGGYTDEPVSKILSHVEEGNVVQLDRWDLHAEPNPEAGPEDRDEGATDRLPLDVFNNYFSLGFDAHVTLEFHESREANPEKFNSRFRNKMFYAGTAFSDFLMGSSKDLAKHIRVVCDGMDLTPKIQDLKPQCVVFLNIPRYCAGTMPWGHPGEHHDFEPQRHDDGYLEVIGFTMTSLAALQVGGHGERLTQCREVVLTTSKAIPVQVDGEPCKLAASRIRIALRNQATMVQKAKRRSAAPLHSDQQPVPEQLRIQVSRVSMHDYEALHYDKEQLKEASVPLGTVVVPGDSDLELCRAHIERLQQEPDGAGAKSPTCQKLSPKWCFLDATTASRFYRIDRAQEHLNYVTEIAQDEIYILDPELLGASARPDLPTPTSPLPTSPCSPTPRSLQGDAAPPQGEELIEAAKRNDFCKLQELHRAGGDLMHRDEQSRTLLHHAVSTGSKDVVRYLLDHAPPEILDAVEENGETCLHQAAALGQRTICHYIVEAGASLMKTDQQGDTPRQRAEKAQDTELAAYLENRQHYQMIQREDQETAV

How the values were obtained:
[1] = target: DGKa (Homo sapiens (Human), UniProt P23743); experiment: DGK ADP-Glo Kinase Assay (DGKa); type: biochemical; details: read-out: DGKa kinase IC50, 10 nM DGKa, 15 uM ATP
[2] = target: DGKz (Homo sapiens (Human), UniProt Q13574); experiment: DGK ADP-Glo Kinase Assay (DGKz); type: biochemical; details: read-out: DGKz kinase IC50, 5 nM DGKz, 15 uM ATP

CC[C@@H]1CN2c3c(c(=O)n(C)c4ccc(C#N)nc34)OC[C@@H]2CN1[C@@H](CC)c1ccc(C(F)(F)F)cc1 [Compound 121]
pIC50 [1]: > 7.00 | pIC50 [2]: > 7.00

pIC50: −log10 of the molar value.
